Earlier results as cited in US11364242B2, “Treatment agents for inhibiting HIV and cancer in HIV infected patients” (UNIVERSITY OF MARYLAND, BALTIMORE, priority 2015, dated 2022).

System: 220 other kinases
Conditions: cited from earlier work

SMILES: CNC(=O)c1cccc(-c2ccc3c(N4CCOC[C@@H]4C)nc(N4CCOC[C@@H]4C)nc3n2)c1 [AZD2014, 3-[2,4-bis[(3S)-3-methylmorpholin-4-yl]pyrido[2,3-d]pyrimidin-7-yl]-N-methylbenzamide]
- selectivity against other kinases: inactive
